Here are results for 2 compounds from article doi:10.1101/2021.01.05.425432v2 (biorxiv, 2021).

The experiment addresses jack bean urease (JBU) (Canavalia ensiformis, UniProt P07374). Put plainly: tandem-well NH3 assay, salicylic acid-hypochlorite. Format: biochemical. As to conditions: 25 mM urea, 100 μM NiCl2, 50 mM phosphate pH 7.4, 37 °C, 30 min preincubation.

By IC50 is commonly meant the point on the concentration scale where inhibition reaches its midpoint. In the case of `O=c1c2ccccc2sn1-c1ccccc1`, the IC50 is 1000 nM. As for `O=C1c2ccccc2C(=O)N1c1ccccc1`, the IC50 was over 10000 nM.
